Here are results for 3 compounds from PubChem BioAssay AID488857 (Sanford-Burnham Center for Chemical Genomics, 2010).

Molecules are shown by their SMILES. The entries are a selection whose mix differs from that of the whole data set. The source made the active and inactive calls.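 Rule for the calls: active = mean inhibition over duplicate tests at 10 µM above 50%; inactive = the rest.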

The experiment is described as follows: ASC/caspase-1 reporter retest in S. cerevisiae at one dose, specificity check for NALP1 project (AID 488857). Conditions: S. cerevisiae ASC/Caspase-1, beta-galactosidase luminescence, 24 h; at 10 µM; hits give high values.
Turning to `CC(=O)NC(SC(=S)N(C)C)C(Cl)(Cl)Cl` (stereo not drawn), the inhibition was active: 61.8%.
With `O=C(OC1CN2CCC1CC2)C12CC3CC(CC(C3)C1)C2` (stereo not drawn), the inhibition was inactive: 40.6%.
Regarding `O=[N+]([O-])c1cc([N+](=O)[O-])c(-c2ccn[nH]2)s1`, the inhibition is active: 61.1%.
